Assay results published in US6537522B1, “Neuroprobes for mapping monoamine reuptake sites” (Amersham PLC, priority 1992, dated 2003).

Amino acid sequences for entries named in this document (tags omitted).
UniProt P31652, whole entry: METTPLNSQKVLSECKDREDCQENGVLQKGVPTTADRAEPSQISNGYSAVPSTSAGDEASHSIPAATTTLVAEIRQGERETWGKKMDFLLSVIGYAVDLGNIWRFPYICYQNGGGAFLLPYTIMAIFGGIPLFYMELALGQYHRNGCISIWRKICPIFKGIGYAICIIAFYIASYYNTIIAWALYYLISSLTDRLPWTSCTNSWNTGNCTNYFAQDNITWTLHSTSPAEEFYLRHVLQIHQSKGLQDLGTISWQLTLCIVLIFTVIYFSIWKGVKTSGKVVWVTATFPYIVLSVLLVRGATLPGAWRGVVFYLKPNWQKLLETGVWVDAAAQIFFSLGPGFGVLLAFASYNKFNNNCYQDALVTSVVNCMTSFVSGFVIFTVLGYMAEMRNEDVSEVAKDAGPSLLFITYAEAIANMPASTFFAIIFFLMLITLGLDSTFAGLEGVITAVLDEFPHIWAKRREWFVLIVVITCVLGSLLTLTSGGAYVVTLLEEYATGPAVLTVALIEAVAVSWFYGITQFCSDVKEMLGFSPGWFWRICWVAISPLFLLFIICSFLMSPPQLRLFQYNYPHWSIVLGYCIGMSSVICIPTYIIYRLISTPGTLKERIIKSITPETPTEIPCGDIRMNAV

Target: T1, 5-HTT (5-HT transporter) (Rattus norvegicus, UniProt P31652)
T1 construct: or frontoparietal cerebral cortex (for 5-HTT and NET); from tissue; host or cells: rat brain frontoparietal cerebral cortex, crude membrane fraction
Assay: 5-HTT assay, [3H]paroxetine binding, rat frontoparietal cerebral cortex membranes
Details: radioligand, 20 Ci/mmol
Description: N-phthalimidopropyl-β-CIT (see Example 10) was analyzed as follows. Stock solutions (1 mM) of test agents were made in 95% ethanol/DMSO (1/1, v/v) and stored at −5° C. until used by diluting in a large excess of each assay buffer. Agents are tested at six concentrations in duplicate, with a crude membrane fraction of homogenates of rat brain corpus striatum (for DAT assays) in Tris-citrate buffer (pH 7.4) containing Na^+ ([…]) and Mg^2+ (4 mM) or frontoparietal cerebral cortex (for 5-HTT and NET) in 50 mM Tris-HCl buffer (pH 7.4) containing Na^+ ([…]) and K^+ (5 mM) following methods reported by Neumeyer et al., J. Med. Chem. 37, 1558-1561 (1991), the whole of which is incorporated by reference herein.

## [^3H]paroxetine [reference compound]
  Kd: 0.15 nM
